For one compound, fraction unbound results are on record in ChEMBL document CHEMBL1208707, “T-type calcium channel blockers: spiro-piperidine azetidines and azetidinones-optimization, design and synthesis” (Bioorg Med Chem Lett, 2010).

Each structure is given as a SMILES string.

The species named for the series is Homo sapiens. The experiment in a line: Protein binding in human plasma. The following applies: read-out: PPB.

For the compound `O=C(Nc1ccc(F)c(F)c1)N1CCC2(CC1)C(=O)N(c1ccc(F)c(Cl)c1)C2c1ccccn1` (stereo in doubt; 40a), the fraction unbound came to 0.001.
